By IC50 is commonly meant the concentration that gives 50% inhibition.

The chains behind the UniProt entries cited, without tags or fusion partners.
UniProt Q14973, whole entry: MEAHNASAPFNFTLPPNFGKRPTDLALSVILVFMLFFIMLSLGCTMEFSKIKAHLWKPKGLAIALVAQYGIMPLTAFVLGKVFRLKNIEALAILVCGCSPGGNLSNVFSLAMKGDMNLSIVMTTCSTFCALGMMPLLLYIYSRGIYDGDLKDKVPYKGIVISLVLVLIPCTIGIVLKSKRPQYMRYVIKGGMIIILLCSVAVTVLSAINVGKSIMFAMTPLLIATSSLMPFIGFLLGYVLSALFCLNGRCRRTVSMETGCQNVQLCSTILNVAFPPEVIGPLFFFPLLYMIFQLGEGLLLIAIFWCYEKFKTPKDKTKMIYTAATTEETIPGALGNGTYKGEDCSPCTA
UniProt Q12908, whole entry: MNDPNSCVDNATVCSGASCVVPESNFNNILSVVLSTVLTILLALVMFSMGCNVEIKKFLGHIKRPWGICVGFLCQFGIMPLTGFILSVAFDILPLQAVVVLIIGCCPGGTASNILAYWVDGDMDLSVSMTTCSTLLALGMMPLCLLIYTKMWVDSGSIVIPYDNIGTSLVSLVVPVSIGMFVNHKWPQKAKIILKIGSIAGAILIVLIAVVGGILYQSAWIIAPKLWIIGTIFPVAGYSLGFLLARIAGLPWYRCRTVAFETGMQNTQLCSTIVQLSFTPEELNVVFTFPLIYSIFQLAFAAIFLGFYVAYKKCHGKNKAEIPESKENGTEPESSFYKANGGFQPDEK

Structures are written as SMILES.

In one experiment the target is Human LBAT (Homo sapiens, UniProt Q14973). The experiment is described as follows: LBAT (h/m) assay, human LBAT-overexpressing cells, 3H-taurocholic acid uptake. Conditions: read-out: hLBAT IC50.
The next experiment deals with Human IBAT (Homo sapiens, UniProt Q12908). The experiment is described as follows: IBAT (h/m) assay, human IBAT-overexpressing cells, 3H-taurocholic acid uptake. Conditions: read-out: hIBAT IC50.

Take `CCC1(CC)CN(c2ccccc2)c2cc(SC)c(OCC(C)(F)C(=O)O)cc2S(=O)(=O)C1` (single isomer, unassigned) [7, enantiomer 1]: the results for the IC50 at Human LBAT and on Human IBAT were 0.05 µM and 0.175 µM, respectively.
Regarding `CCC1(CC)CN(c2ccccc2)c2cc(SC)c(OCC(C)(F)C(=O)O)cc2S(=O)(=O)C1` (single isomer, unassigned) [7, enantiomer 2], the IC50 at Human LBAT worked out at 0.472 µM; at Human IBAT it was 0.701 µM.
On to `CCCCC1(CC)CN(c2ccc(F)cc2)c2cc(SC)c(OCC3(C(=O)O)CC3)cc2S(=O)(=O)C1` (single isomer, unassigned), for which the IC50 at Human LBAT amounted to 0.903 µM; at Human IBAT, 0.003 µM.
The matching figures for `CCCCC1(CC)CN(c2ccc(F)cc2)c2cc(SC)c(OCC(C)(C)C(=O)O)cc2S(=O)(=O)C1` (single isomer, unassigned): 0.138 µM and 0.007 µM.
